# Laboratory results as given in US20220175921A1 (Bristol-Myers Squibb, published 2022).
# T1: recombinant human GITR/Fc (rHGITR/Fc, R&D systems CAT #689-GR) (human, UniProt Q9Y5U5 26-161, limits assumed)
# T1 construct: Bought; also called soluble GITR
# T1 chain: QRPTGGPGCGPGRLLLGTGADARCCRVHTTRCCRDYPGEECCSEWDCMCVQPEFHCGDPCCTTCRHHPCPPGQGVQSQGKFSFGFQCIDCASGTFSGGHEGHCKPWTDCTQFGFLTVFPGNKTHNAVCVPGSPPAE
# T2: human GITR, membrane bound (on activated human T cells or on 3A9-hGITR cells) (human, UniProt Q9Y5U5 26-241)
# T2 construct: also called huGITR; TNFRSF18
# T2 sequence: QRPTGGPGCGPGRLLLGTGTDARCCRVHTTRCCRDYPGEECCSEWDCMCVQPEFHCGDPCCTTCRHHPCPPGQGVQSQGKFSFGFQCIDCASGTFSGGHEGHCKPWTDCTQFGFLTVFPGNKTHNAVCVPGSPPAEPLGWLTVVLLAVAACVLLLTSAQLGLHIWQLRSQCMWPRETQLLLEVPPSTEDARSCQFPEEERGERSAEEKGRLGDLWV
# How the values were obtained:
# [1] = biological target: T1, recombinant human GITR/Fc (rHGITR/Fc, …); experiment: SPR; mAb captured (anti-CH1), rHGITR/Fc analyte
# Protocol: Binding of anti-GITR antibodies to soluble GITR was determined by Biacore. […] The capture concentration of the mAb/volume was 2-40 μg/mL (5 μL at 10 μL/min). The antigen association time was 5 minutes at 15 μL/min, the antigen dissociation time was 6 minutes, and regeneration was performed with 50 mM HCl/50 mM NaOH (12 μL each at 100 μL/min).
# [2] = biological target: T2, human GITR, membrane bound (on …); experiment: Scatchard; 125I-labelled mAb on 3A9-huGITR cells
# [3] = biological target: T2, human GITR, membrane bound (on …); experiment: Scatchard; 125I-labelled mAb on 3 day stimulated human CD4+ T cells
# [4] = biological target: T2, human GITR, membrane bound (on …); experiment: Scatchard; 125I-labelled mAb on 4 day stimulated human CD4+ T cells
Kd [1] [nM],koff [1] [s⁻¹],kon [1] [M⁻¹ s⁻¹],Kd [2] [nM],Kd [3] [nM],Kd [4] [nM],Binder
42.6,0.00336,78800,,,,"28F3-N297A (antibody, 28F3 variable regions, IgG1 constant region having an N297A mutation) heavy: QVQLVESGGGVVQPGRSLRLSCAASGFTFSSYGMHWVRQAPGKGLEWVAVIWYEGSNKYYADSVKGRFTISRDNSKNTLYLQMNSLRAEDTAVYYCARGGSMVRGDYYYGMDVWGQGTTVTVSSASTKGPSVFPLAPSSKSTSGGTAALGCLVKDYFPEPVTVSWNSGALTSGVHTFPAVLQSSGLYSLSSVVTVPSSSLGTQTYICNVNHKPSNTKVDKRV[human IgG1 Fc with changes not given here] light: AIQLTQSPSSLSASVGDRVTITCRASQGISSALAWYQQKPGKAPKLLIYDASSLESGVPSRFSGSGSGTDFTLTISSLQPEDFATYYCQQFNSYPYTFGQGTKLEIKRTVAAPSVFIFPPSDEQLKSGTASVVCLLNNFYPREAKVQWKVDNALQSGNSQESVTEQDSKDSTYSLSSTLTLSKADYEKHKVYACEVTHQGLSSPVTKSFNRGEC"
39.3,0.00358,90900,0.5,0.7,0.87,"28F3.IgG1.1 (antibody, 28F3 variable regions with effectorless IgG1.1f constant region; also called 28F3.IgG1.1f; 28.IgG1.1) heavy: QVQLVESGGGVVQPGRSLRLSCAASGFTFSSYGMHWVRQAPGKGLEWVAVIWYEGSNKYYADSVKGRFTISRDNSKNTLYLQMNSLRAEDTAVYYCARGGSMVRGDYYYGMDVWGQGTTVTVSSASTKGPSVFPLAPSSKSTSGGTAALGCLVKDYFPEPVTVSWNSGALTSGVHTFPAVLQSSGLYSLSSVVTVPSSSLGTQTYICNVNHKPSNTKVDKRVEPKSCDKTHTCPPCPAPEAEGAPSVFLFPPKPKDTLMISRTPEVTCVVVDVSHEDPEVKFNWYVDGVEVHNAKTKPREEQYNSTYRVVSVLTVLHQDWLNGKEYKCKVSNKALPSSIEKTISKAKGQPREPQVYTLPPSREEMTKNQVSLTCLVKGFYPSDIAVEWESNGQPENNYKTTPPVLDSDGSFFLYSKLTVDKSRWQQGNVFSCSVMHEALHNHYTQKSLSLSPG light: AIQLTQSPSSLSASVGDRVTITCRASQGISSALAWYQQKPGKAPKLLIYDASSLESGVPSRFSGSGSGTDFTLTISSLQPEDFATYYCQQFNSYPYTFGQGTKLEIKRTVAAPSVFIFPPSDEQLKSGTASVVCLLNNFYPREAKVQWKVDNALQSGNSQESVTEQDSKDSTYSLSSTLTLSKADYEKHKVYACEVTHQGLSSPVTKSFNRGEC"
